# Laboratory results as given in US10822367B2, “Pharmaceutical composition for preventing or treating dementia and improving cognitive function, comprising glasswort extract” (priority 2017, dated 2020).
# Protein sequences, listed by entry. Tags and fused reporters are not part of them. Residues count along the entry.
# UniProt P22303, 32-614: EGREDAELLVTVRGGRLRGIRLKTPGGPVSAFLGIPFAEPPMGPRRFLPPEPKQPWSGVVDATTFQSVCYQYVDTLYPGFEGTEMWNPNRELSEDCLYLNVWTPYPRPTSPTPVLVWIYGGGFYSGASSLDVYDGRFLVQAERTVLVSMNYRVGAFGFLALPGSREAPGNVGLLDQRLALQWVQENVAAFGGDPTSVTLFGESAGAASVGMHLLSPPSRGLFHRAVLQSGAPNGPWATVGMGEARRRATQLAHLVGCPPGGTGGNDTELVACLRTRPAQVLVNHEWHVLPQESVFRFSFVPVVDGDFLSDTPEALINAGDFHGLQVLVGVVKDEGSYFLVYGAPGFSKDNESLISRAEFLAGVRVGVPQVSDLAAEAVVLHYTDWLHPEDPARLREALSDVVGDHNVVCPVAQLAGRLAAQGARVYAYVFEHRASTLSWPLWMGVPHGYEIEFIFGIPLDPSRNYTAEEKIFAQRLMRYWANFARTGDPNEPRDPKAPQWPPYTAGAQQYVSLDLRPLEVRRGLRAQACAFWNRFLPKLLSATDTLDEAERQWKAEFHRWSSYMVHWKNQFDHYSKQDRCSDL
# Where “and” joins values, the source holds several entries; their conditions need not be identical. Identical values can stand only once.
# Biological target: acetylcholine esterase (AChE) (Homo sapiens, UniProt P22303)
# Experiment: Acetylcholine esterase inhibitory activity (partially corrected Ellman's coupled enzyme assay)
# Type: biochemical
# Description: It has been reported that as the concentration of acetylcholine esterase (AChE) increases in the cerebral blood vessels, cholinergic neurotransmitters for neurons are deficient in neurons, causing memory and cognitive impairment. Therefore, the measurement of AChE inhibitory activity can be used as a tool for the development of a drug or health functional raw material for prevention and treatment of dementia or enhancement of cognitive ability. In the present invention, the AChE inhibitory activity of a desalted Salicornia europaea extract, a desalted Salicornia europaea enzymatic hydrolysis extract, or purified fractions obtained from a desalted Salicornia europaea extract were measured, and the measurement was conducted by partially correcting Ellman's coupled enzyme assay. […] The enzymatic reaction solution was incubated at 37° C. for 10 minutes, and then the absorbance was measured by a UV-VIS microreader at 410 nm. The AChE inhibitory activity was calculated as below by comparison between the absorbance (Ac) of a control group not containing a substrate and a sample and the absorbance (As) of a test group. *AChE inhibitory activity (%)=[1−(As/Ac)]×100 • Ac: absorbance of a control group, • As: absorbance of a sample group.
structure (smiles),measurement,value
COc1ccc2cc3[n+](cc2c1OC)CCc1cc2c(cc1-3)OCO2 [Berberine],IC50,16.6 µM and 31.8 µM
